# What was measured:
# The chains behind the UniProt entries cited, without tags or fusion partners.
# UniProt Q13546, whole entry: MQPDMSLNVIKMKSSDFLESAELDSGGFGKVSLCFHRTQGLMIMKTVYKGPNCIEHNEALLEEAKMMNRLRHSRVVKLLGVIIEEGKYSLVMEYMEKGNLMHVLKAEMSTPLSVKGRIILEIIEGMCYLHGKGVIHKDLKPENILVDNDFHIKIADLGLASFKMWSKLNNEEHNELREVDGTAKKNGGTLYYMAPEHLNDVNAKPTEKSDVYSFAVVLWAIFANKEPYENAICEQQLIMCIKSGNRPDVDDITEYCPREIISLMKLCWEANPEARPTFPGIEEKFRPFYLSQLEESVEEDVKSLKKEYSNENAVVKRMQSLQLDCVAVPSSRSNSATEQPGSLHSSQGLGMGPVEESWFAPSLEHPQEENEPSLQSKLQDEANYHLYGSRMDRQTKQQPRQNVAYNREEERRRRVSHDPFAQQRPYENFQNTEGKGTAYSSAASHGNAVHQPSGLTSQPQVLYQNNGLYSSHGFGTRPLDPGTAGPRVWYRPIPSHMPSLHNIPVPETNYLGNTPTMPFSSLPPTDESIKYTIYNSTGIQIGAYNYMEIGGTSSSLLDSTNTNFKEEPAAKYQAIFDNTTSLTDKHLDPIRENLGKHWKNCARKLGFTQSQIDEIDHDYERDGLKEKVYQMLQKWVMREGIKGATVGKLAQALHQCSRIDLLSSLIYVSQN
# [1] = test system: L929 cells; assay: TNFα-induced L929 cell death recovery, CTG readout (Testing Example 1); settings: read-out: TNFα+Z L929-CTG-recoveny IC50, method: 10 ng/mL TNFα and 40 nM SM-164, 24 hours
# [2] = target: human Ripk1 (Homo sapiens, UniProt Q13546); assay: Promega ADP-Glo kinase assay of Ripk1 enzymatic activity (Testing Example 2); settings: read-out: ADP GLO IC50; human Ripk1 1.25 ng/µL, substrate MBP, ATP 12.5 µM, 3 hours at room temperature
# [3] = test system: U937 cells; assay: TNFα-induced U937 cell death recovery, CTG readout (Testing Example 1); settings: read-out: TNFα+Z U937-CTG-recoveny IC50, 100 ng/mL TNFα and 25 µM Z-VAD, 24 hours
smiles,measurement,setting,value
CN1C(=O)[C@@H](N2CCc3c(nn4c3CC[C@H]4c3ccccc3)C2=O)COc2ccc(C#CC3CC3)cc21,IC50,[1],7 nM
same,IC50,[2],130 nM
CN1C(=O)[C@@H](NC(=O)c2n[nH]c(Cc3ccccc3)n2)COc2ccccc21,IC50,[1],2000 nM
same,IC50,[3],3 nM

# — EP4843989A1, “POLYCYCLIC COMPOUND, PHARMACEUTICAL COMPOSITION THEREOF, AND USE THEREOF” (dated 2026)
